Assay results: BindingDB's records for doi:10.1021/jm9601967 (F. Hoffmann-La Roche, 1996)

Experiment: Compound was tested for inhibition of Penicillin-binding protein 2 from Streptococcus pneumoniae

C[C@]1(/C=C/C#N)[C@H](C(=O)O)N2C(=O)C[C@H]2S1(=O)=O [Sodium; (2S,3R,5R)-3-((Z)-2-cyano-vinyl)-3-methyl-4,4,7-trioxo-4lambda*6*-thia-1-aza-bicyclo[3.2.0]heptane-2-carboxylate]
IC50: 5 µM
